Results taken from ChEMBL document CHEMBL5120947, “General Pharmacological Activation Mechanism of K+ Channels Bypassing Channel Gates” (J Med Chem, 2022).
The source made the active and inactive calls. The rule behind the calls is not given here.

Amino acid sequences for entries named in this document (tags omitted). A change or cut given only in a name is not applied to a line headed by its entry.
UniProt Q12791: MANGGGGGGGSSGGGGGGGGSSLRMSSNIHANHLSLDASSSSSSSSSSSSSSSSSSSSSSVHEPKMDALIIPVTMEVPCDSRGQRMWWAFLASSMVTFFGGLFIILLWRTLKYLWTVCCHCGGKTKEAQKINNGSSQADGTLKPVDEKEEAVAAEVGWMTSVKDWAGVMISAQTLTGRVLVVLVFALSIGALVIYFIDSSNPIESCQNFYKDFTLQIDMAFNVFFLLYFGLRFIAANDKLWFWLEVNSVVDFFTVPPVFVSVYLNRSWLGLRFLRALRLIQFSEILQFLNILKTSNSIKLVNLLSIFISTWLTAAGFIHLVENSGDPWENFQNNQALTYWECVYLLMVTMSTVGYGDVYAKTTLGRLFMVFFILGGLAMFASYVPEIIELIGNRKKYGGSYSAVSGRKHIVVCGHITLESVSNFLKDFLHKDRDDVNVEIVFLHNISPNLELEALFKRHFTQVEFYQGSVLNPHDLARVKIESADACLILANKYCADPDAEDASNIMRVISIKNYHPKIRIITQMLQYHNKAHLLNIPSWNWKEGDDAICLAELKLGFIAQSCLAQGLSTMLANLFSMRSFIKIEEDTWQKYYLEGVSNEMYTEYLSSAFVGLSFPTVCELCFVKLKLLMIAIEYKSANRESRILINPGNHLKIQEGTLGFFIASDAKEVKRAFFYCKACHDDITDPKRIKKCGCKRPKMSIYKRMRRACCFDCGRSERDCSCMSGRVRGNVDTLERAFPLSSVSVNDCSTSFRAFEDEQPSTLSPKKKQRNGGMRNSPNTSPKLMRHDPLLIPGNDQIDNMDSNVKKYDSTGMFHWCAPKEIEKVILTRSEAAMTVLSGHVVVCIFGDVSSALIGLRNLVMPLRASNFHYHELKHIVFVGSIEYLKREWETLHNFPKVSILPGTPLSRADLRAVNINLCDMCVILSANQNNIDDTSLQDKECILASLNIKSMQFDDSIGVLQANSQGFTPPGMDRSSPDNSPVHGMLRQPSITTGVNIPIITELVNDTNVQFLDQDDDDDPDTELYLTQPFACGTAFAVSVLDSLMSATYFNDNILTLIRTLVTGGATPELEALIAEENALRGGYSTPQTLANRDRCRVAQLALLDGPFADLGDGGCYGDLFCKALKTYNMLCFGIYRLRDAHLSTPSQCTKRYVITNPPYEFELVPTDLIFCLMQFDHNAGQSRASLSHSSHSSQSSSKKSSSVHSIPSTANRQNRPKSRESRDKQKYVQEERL
UniProt P16389, whole entry: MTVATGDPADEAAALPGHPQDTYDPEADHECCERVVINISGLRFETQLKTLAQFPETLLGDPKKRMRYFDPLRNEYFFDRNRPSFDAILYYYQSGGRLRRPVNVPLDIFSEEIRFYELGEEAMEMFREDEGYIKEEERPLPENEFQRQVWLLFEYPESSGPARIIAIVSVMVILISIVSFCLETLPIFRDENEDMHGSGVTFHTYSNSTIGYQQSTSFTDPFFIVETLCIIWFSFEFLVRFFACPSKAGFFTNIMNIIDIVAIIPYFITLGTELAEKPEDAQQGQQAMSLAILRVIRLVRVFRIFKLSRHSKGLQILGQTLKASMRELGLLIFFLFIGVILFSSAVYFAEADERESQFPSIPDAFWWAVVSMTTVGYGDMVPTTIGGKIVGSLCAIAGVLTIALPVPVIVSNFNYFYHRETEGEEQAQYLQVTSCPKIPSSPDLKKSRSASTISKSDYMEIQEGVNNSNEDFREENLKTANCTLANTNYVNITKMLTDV

Assays:
Type in all cases: cell-based
Conditions in all cases: filed as activator
[1] = biological target: Calcium-activated potassium channel subunit alpha-1 (Homo sapiens) (UniProt Q12791); assay: Activation of human BKca expressed in HEK293T cells at 10 uM by patch clamp electrophysiology method
[2] = biological target: Potassium voltage-gated channel subfamily A member 2 (Homo sapiens) (UniProt P16389); assay: Activation of human Kv1.2 expressed in HEK293T cells at 10 uM by patch clamp electrophysiology method
[3] = biological target: T1, ATP-sensitive inward rectifier potassium channel 10 (Homo sapiens) (UniProt P78508); assay: Activation of human Kir4.1 expressed in HEK293T cells at 10 uM by patch clamp electrophysiology method
T1 sequence (whole entry): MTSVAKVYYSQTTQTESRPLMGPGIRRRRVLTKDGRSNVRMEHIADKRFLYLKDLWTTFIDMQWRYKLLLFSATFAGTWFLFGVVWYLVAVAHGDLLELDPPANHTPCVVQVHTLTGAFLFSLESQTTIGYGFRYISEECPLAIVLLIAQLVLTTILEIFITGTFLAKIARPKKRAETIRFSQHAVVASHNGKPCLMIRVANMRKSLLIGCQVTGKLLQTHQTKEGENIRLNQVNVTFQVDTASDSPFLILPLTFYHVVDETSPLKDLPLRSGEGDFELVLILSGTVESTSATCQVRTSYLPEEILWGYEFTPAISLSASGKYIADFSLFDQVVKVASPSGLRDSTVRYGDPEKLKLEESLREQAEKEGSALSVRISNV

[4] = biological target: T2, Potassium channel subfamily K member 2 (Homo sapiens) (UniProt O95069); assay: Activation of human TREK-1 channel expressed in CHO cells at 10 uM by patch clamp electrophysiology method
T2 sequence (whole entry): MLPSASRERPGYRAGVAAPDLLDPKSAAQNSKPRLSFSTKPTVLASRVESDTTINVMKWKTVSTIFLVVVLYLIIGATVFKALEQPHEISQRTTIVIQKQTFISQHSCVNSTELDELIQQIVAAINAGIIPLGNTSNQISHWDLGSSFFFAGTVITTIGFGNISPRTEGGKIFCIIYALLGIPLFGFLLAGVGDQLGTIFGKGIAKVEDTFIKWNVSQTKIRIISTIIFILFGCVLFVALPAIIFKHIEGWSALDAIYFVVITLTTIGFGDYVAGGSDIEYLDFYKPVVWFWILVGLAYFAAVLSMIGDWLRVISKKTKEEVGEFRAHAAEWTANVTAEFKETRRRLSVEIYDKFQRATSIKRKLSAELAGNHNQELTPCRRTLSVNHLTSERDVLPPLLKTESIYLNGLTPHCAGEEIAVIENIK

Activity [1]: Active
Activity [2]: Active
Activity [3]: Active
Activity [4]: Active
SMILES: Cc1ccc(CSCc2nnc(SCC(=O)Nc3ccc(Br)cc3Br)n2C)cc1
